What was measured:
[1] = system: scopolamine-induced memory deterioration; experiment: step-through passive avoidance test; format: in vivo; conditions: male ICR mice; peptide intraperitoneally 30 minutes before scopolamine; scopolamine 30 minutes before test; retention trial after 24 hours; compared with scopolamine-administered group
Method: Louis, Mo., USA). 4-week-old male ICR mice were purchased from Korean BioLink Co. (Chungbuk, Korea). After an adaptation period of one week, the mice were used in a test and all reagents were administered intraperitoneally. […] A passive avoidance test was performed in the same bright room and dark room. A floor of each room was formed in a shape in which 2-mm stainless steel rods were separated from each other at 1-cm intervals. Bright squares (20×20×20 cm) had 100-W bulbs. These squares were connected to a guillotine door. For an acquisition trial, the mouse was placed in the bright room after injection of the reagents and the door was opened after 10 seconds. When the mouse completely entered the dark room, the door was closed and electric shock was applied for 3 seconds. A retention trial was performed after 24 hours of the acquisition trial and the mouse was positioned in the bright room. A latency time of the acquisition and retention trials was measured by a time until the mouse entered the dark room of the box after the door was opened. The retention latency in the passive avoidance test represents a long-term memory function in rodents.

[2] = system: scopolamine-induced memory deterioration; experiment: Y maze test; format: in vivo; conditions: male ICR mice; peptide intraperitoneally 30 minutes before scopolamine; scopolamine 30 minutes before test; compared with scopolamine-administered group
Method: Scopolamine was purchased from Sigma-Aldrich (St. Louis, Mo., USA). 4-week-old male ICR mice were purchased from Korean BioLink Co. (Chungbuk, Korea). After an adaptation period of one week, the mice were used in a test and all reagents were administered intraperitoneally. Memory disorder was induced by injection of scopolamine before 30 minutes of the test and the synthesized peptides were injected before 30 minutes of the injection of scopolamine.
The mouse was placed at one end of a Y maze with a length of one branch of 30 cm, a width of 5 cm, and a height of 13 cm and the order of entry into each branch was recorded. Alternation was judged to be successful if the mouse sequentially entered three different branches. Spontaneous alternation was defined as Equation below. Spontaneous alternation (%)=the number of alternations/(total number of entries−2)×100

For Peptide-I (AG), the “retention trial latency time (memory improving effect)” value [1] was “slight improvement” and the “spontaneous alternation (memory improving effect)” value [2] was “slight improvement”.
